# Yeast mating assay 1: variants of the scFv Ab-14

Reference: Engelhart et al. 2022, doi:10.1038/s41597-022-01779-4. File: FLAb, binding data.

All variants were tested on one target, the spike HR2 peptide PDVDLGDISGINAS (SARS-CoV-2).

Parent scFv Ab-14: VH joined to VL by the linker GGGGSGGGGSGGGGS. Changes lie in the light chain CDRs alone.
VH: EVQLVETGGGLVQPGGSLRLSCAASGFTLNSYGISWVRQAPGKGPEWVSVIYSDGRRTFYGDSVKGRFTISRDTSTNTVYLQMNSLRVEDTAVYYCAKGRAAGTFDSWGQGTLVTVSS
VL: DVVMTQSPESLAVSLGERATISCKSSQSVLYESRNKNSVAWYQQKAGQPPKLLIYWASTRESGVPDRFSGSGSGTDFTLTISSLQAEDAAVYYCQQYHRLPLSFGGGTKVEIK

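The starting antibody came from a phage panning campaign against this peptide. In library AAYL50, one, two or three CDR residues were substituted; doubles and triples were drawn at random. The scFvs were displayed on barcoded MATa yeast, the peptide on MATalpha yeast. The frequency of each diploid, read from paired DNA barcodes, reflects how well the two displayed proteins bind. Scores were corrected for input abundance and mapped to Kd with protein pairs of known affinity run in the same pool. There are three technical replicates.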

The parent's light chain CDRs are KSSQSVLYESRNKNSVA, WASTRES, QQYHRLPLS; each variant's own CDRs replace them letter for letter.
Every variant below is changed at S58 of the VL (sequential numbering).
Kd is apparent (estimated from mating counts) and averaged on the log scale over replicates with a signal. Smaller is tighter.
"nd" marks a missing value. The strain was present, yet no cells mated with the target were sequenced in any replicate, which points to weak or no binding.
Background: pairings of library AAYL50 with three empty control strains gave a value in 18% of cases (median 15 µM, 5th percentile 970 nM). Values in that range, when seen in few replicates, are hard to tell from nonspecific mating. For each scFv, signals with the empty controls are counted beside the result.

Variant KSSQSVLYESRNKNSVA | WAQTRES | QQYHRLPVT gave 19 nM (3 of 3 replicates; controls 3 of 9). With KSSQSVLYESRWKNSVA | WAYTRES | QFYHRLPLS the result was 26 µM (1 of 3 replicates; controls 1 of 9). Variant KSSESVLYESRNKNSVA | VAYTRES | QQYHRLPLS gave 2.0 µM (1 of 3 replicates; controls 2 of 9). Variant CSSQSVLYESRNHNSVA | WANTRES | QQYHRLPLS showed 580 nM (3 of 3 replicates; controls 1 of 9). Variant KSSQSVLYESRNKNSVA | CATTRES | MQYHRLPLS showed nd (0 of 3 replicates; controls 0 of 9). For KLSQSVLYESRNKNSVA | WAPTRES | QQYHRLPLS, the assay gave nd (0 of 3 replicates; controls 0 of 9). Variant KSSQSVLYESRNKNSVA | WARHREP | QQYHRLPLS showed 190 nM (3 of 3 replicates; controls 4 of 9). Variant KSSQSCLYESRKKNSVA | WAPTRES | QQYHRLPLS gave 1.3 mM (1 of 3 replicates; controls 6 of 9).

Variant KSSQSSLYESRNKNSVA | PAGTRES | QQYHRLPLS showed 3.7 µM (1 of 3 replicates; controls 3 of 9). With KSSQSVLYESRNKNSVA | WAYHRES | QQYHRLPLS the result was 100 nM (3 of 3 replicates; controls 0 of 9). Variant GSSQSVCYESRNKNSVA | WAGTRES | QQYHRLPLS showed 5.8 µM (1 of 3 replicates; controls 1 of 9). With KSSQSVLYTSRNKNSVA | WAYTREP | QQYHRLPLS the result was 19 µM (3 of 3 replicates; controls 6 of 9). Variant KDSQSVLYESRNKNSVA | WATTRET | QQYHRLPLS showed 5.5 nM (3 of 3 replicates; controls 1 of 9). Variant QSSQSVLYESRNKNSVA | WAPTRES | QQCHRLPLS showed nd (0 of 3 replicates; controls 1 of 9). Variant KSSNSVLFESRNKNSVA | WAPTRES | QQYHRLPLS showed 47 µM (2 of 3 replicates; controls 2 of 9). With KSSQSVLYESRNKVSVA | WAFTCES | QQYHRLPLS the result was 33 µM (3 of 3 replicates; controls 1 of 9).

Variant KSSQSVLPEWRNKNSVA | WAKTRES | QQYHRLPLS gave 41 nM (3 of 3 replicates; controls 3 of 9). For KSSQSVLWESRAKNSVA | WAQTRES | QQYHRLPLS, the assay gave 73 nM (3 of 3 replicates; controls 5 of 9). Variant KSSQSVLYESRNKNSVA | WAWTRES | QQYGALPLS gave 21 µM (2 of 3 replicates; controls 3 of 9). For KSSQSVLYTWRNKNSVA | WACTRES | QQYHRLPLS, the assay gave nd (0 of 3 replicates; controls 0 of 9). With KSSQSVLYESRNKNSVA | WAPTRES | QQYHRKPLS the result was nd (0 of 3 replicates; controls 0 of 9). With KSSQSFLYESRNKNSVA | WACTRES | VQYHRLPLS the result was nd (0 of 3 replicates; controls 1 of 9). Variant KSSQSVKYESRNKNKVA | WAVTRES | QQYHRLPLS showed 5.2 µM (1 of 3 replicates; controls 3 of 9). With PSSQSVLYESRNKNSVA | WAATWES | QQYHRLPLS the result was 5.3 µM (1 of 3 replicates; controls 2 of 9).

With KSSYSVLYESRNKNSVA | WATTRES | QQYHRLPLS the result was 5.1 nM (3 of 3 replicates; controls 0 of 9). With KSSQSVLYWSRNKNSVA | WADTRES | QQYHNLPLS the result was 150 nM (3 of 3 replicates; controls 1 of 9). Variant KSSQSVLYESVNKNSVQ | WAGTRES | QQYHRLPLS gave 13 µM (2 of 3 replicates; controls 4 of 9). For KSSQSVLYESRNKNSVA | WKDTRES | QQYHRLPLS, the assay gave 110 nM (3 of 3 replicates; controls 1 of 9). With KSSQSDLYESRNKNSVA | WATARES | QQYHRLPLS the result was 7.6 nM (3 of 3 replicates; controls 5 of 9). Variant KSSQSVIYESRNKNSVA | WAFTRES | QQYHRLPLS showed 510 nM (3 of 3 replicates; controls 5 of 9). For KFSQSVLYESRNKNSVA | WAGTRES | QQYHRLPLS, the assay gave 250 nM (3 of 3 replicates; controls 2 of 9). For KSTQSVLYESRNKNSVA | WAITRES | QQYGRLPLS, the assay gave 840 nM (3 of 3 replicates; controls 4 of 9).

For KSSQSLLYESRNKNSVA | WAFTRES | QQYHRLPLS, the assay gave 2.9 mM (1 of 3 replicates; controls 4 of 9). With KSSDSVLYESRNKNSVA | WACTRES | QQYHRMPLS the result was 1.5 µM (3 of 3 replicates; controls 7 of 9). Variant KSSQSVLYESRNKNSLA | WAPTRES | QQYHRLNLS showed nd (0 of 3 replicates; controls 2 of 9). Variant KSSQSVLYESRNKNSVA | WAQTRES | FLYHRLPLS showed 39 nM (3 of 3 replicates; controls 1 of 9).

The first 6 variants above that were never detected:

With KSSQSVLYESRNKNSVA | CATTRES | MQYHRLPLS the result was nd (0 of 3 replicates; controls 0 of 9).
With KLSQSVLYESRNKNSVA | WAPTRES | QQYHRLPLS the result was nd (0 of 3 replicates; controls 0 of 9).
With QSSQSVLYESRNKNSVA | WAPTRES | QQCHRLPLS the result was nd (0 of 3 replicates; controls 1 of 9).
With KSSQSVLYTWRNKNSVA | WACTRES | QQYHRLPLS the result was nd (0 of 3 replicates; controls 0 of 9).
With KSSQSVLYESRNKNSVA | WAPTRES | QQYHRKPLS the result was nd (0 of 3 replicates; controls 0 of 9).
With KSSQSFLYESRNKNSVA | WACTRES | VQYHRLPLS the result was nd (0 of 3 replicates; controls 1 of 9).